In the experiment the target is T1, Human factor Xa (Homo sapiens, UniProt P00742).
T1 construct: purchased Enzyme Research Laboratories, South Bend Ind
Kind of experiment: Xa assay (chromogenic substrate S-2765). The settings on record: reported only as less than or greater than 30 uM; read-out: Factor Xa (II) IC50. Type of experiment: biochemical. The protocol: Human factor Xa (0.3 nM) and 0.15 mM -a-Benzyloxycarbonyl-D-arginyl-L-glycyl-L-arginine-p-nitroaniline-dihydrochloride (S-2765) are added to a 96-well assay plate containing either inhibitor or buffer (50 mM Tris-HCl, pH 8.0, 100 mM NaCl, 0.1% BSA). The reaction, in a final volume of 100 ul is measured immediately at 405 nm to determine background absorbance. The plate is incubated at room temperature for 60 min, at which time the rate of hydrolysis of the substrate is measured by monitoring the reaction at 405 nm for the release of p-nitroaniline. Percent inhibition of Xa activity is calculated from OD405 nm value from the experimental and control sample.
Recombinant soluble TF, consisting of amino acids 1-219 of the mature protein sequence was expressed in E. coli and purified using a Mono Q Sepharose FPLC. Recombinant human VIIa was purchased from American Diagnostica, Greenwich CT and chromogenic substrate N-methylsulfonyl-D-phe-gly-arg-p-nitroaniline was prepared by American Peptide Company, Inc., Sunnyvale, Calif. Factor Xa was obtained from Enzyme Research Laboratories, South Bend Ind., thrombin from Calbiochem, La Jolla, Calif., and trypsin and L-BAPNA from Sigma, St. Louis Mo. The chromogenic substrates S-2765 and S-2238 were purchased from Chromogenix, Sweden.

By UniProt entry, the sequences of proteins in these tests, tags left out. Residues count along the entry.
UniProt P00742, 41-179 limits assumed: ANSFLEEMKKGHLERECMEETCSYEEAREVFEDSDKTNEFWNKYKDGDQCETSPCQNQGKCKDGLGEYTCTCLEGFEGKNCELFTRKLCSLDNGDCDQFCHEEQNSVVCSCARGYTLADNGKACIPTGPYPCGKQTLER
UniProt P00742, 235-488 limits assumed: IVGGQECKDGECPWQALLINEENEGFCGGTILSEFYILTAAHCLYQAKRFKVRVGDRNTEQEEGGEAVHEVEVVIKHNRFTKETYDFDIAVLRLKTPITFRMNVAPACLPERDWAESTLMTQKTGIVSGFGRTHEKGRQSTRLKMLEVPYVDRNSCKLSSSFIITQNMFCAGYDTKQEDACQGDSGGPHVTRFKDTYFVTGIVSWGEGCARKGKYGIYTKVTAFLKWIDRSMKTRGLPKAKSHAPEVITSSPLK

One may read the IC50 as the concentration that inhibits the measured activity by half. In the case of `CC(C)Nc1ccc(-c2cc(N)cc(N)c2)n(CC(=O)NCc2ccc(C(=N)N)cc2)c1=O` [Example 163], the IC50 was over 30 µM.
